One substance from US20080058281A1, “Skin Lightening Compositions Comprising Vitamines and Flavonoids” (priority 2004, published 2008) can be followed below.

This experiment relates to Melanoderm (MatTek MEL-300-B) tissue, epidermal keratinocytes (NHEK) and melanocytes (NHM). Description: Melanoderm system: quantification of light (alkali-soluble) and dark (alkali-insoluble) melanin. The class given is cell-based, human. As to conditions: Table 1 concentrations. Here is the method:
In these examples, evaluation of the ability of various agents, individually and in combination, to influence levels of dark and light melanin was tested using the commercially available Melanoderm™ system.
The MelanoDerm™ MatTeks system consists of normal, human-derived epidermal keratinocytes (NHEK) and melanocytes (NHM) which have been cultured to form a multilayered, highly differentiated model of the human epidermis. The NHM within co-cultures undergo spontaneous melanogenesis leading to tissues of varying levels of pigmentation. The tissues are produced using serum free medium without artificial stimulators of melanogenesis such as TPA and IBMX. The cultures are grown on cell culture inserts at the air-liquid interface, allowing for simulated topical application of agents to be tested. Introduction of agents into the medium simulates systemic application. Thus, the model provides a useful in vitro means to evaluate agents designed to modulate skin pigmentation.
On delivery, the melanoderms (MatTek MEL-300-B) were placed onto metal ring supports in a 6 well plate containing 5 ml of pre-warmed maintenance media (of EPI-100-MM-PRF), using aseptic technique as per MatTek's protocol. Incubation was carried out overnight at 37° C. and 4% CO2 to allow the melanoderms to recover and equilibrate fully. Once placed under these conditions the MEL-300 tissue, undergo melanogenesis and differentiation.
Treatment was initiated on the following morning. Agents to be tested were dissolved in appropriate solvents and added to warmed media at final concentrations pre-assessed for melanocyte toxicity. Each time the media was changed, the spent media was aspirated from the melanoderms and reserved for testing for toxicity (Lactate Dehydrogenase (Promega)) and Interleukin-1 release (R&D systems) and replaced with a fresh dose of media plus test agents whether within the media of the melanoderm. Melanoderms were returned to the incubator. This treatment regime was repeated every 48 hours until a relative difference in darkening was observed between control and test agents.
On observation of differences in darkening, microscopic and macroscopic darkening were recorded photographically. Harvesting the tissue of the melanoderm involved cutting away the tissue from its plastic support and was followed by quantification of melanin present post-treatment versus untreated.
Melanoderm samples were cut from the plastic holders and the wet weight of tissue measured. 200 μl 1M NaOH/8M urea was added to the melanoderm sample the tissue homogenised in a microfuge tube. […]
Absolute melanin is calculated as the actual melanin quantity calculated from a previously determined light melanin standard curve: x=(y−0.003)/4.76423 (where x=concentration of melanin and y=optical density at 340 nm).

For Vitamin A, the “Ratio of light melanin (μg/g)/dark melanin (μg/g)” value (control 0.14) is listed as 0.16. Besides, the “Light Melanin” value (alkali-soluble melanin, OD 340 nm, control 0.85) was found to be 1.09 µg/g. The “Dark Melanin, change relative to control” value (value in brackets under Dark Melanin) is listed as “(+10.4%)”. The “Light Melanin, change relative to control” value (value in brackets under Light Melanin) is on record as “(+28.2%)”.
